Laboratory results: patent US8431565B2 (priority 2007, dated 2013)

By UniProt entry, the sequences of proteins in these tests, tags left out.
UniProt P34972, whole entry: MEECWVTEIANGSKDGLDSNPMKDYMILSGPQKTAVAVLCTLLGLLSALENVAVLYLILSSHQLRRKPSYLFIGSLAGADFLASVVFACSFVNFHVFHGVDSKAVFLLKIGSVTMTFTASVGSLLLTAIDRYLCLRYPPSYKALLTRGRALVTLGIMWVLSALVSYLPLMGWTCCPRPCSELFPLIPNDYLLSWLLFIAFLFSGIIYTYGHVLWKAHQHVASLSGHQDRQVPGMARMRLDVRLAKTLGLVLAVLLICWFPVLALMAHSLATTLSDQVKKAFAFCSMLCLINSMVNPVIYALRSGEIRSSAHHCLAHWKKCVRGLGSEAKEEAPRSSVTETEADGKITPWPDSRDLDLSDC

target: human CB2 receptor (hCB2) (Homo sapiens, UniProt P34972); experiment: cell-based

Row | Structure (SMILES) | EC50
1 | CN1CCCn2c(-c3cc(F)c(F)cc3F)nc(C(=O)N3CCC4(CCNC4=O)CC3)c2C1 [Compound 787, 8-(8-methyl-3-(2,4,5-trifluorophenyl)-6,7,8,9-tetrahydro-5H-imidazo[1,5-a][1,4]diazepine-1-carbonyl)-2,8-diazaspiro[4.5]decan-1-one] | > 10 µM
2 | CN1CCN(CC(C)(C)NC(=O)c2nc(-c3cc(Cl)c(F)cc3F)n3c2CN(C)CCC3)CC1 [Compound 879, 3-(5-chloro-2,4-difluorophenyl)-8-methyl-N-(2-methyl-1-(4-methylpiperazin-1-yl)propan-2-yl)-6,7,8,9-tetrahydro-5H-imidazo[1,5-a][1,4]diazepine-1-carboxamide] | > 10 µM
3 | CNC(=O)[C@@H](NC(=O)c1nc(-c2cnn(CC(C)C)c2)n2c1CN(C)CCC2)C(C)(C)C [Compound 710, (S)-N-(3,3-dimethyl-1-(methylamino)-1-oxobutan-2-yl)-3-(1-isobutyl-1H-pyrazol-4-yl)-8-methyl-6,7,8,9-tetrahydro-5H-imidazo[1,5-a][1,4]diazepine-1-carboxamide] | > 10 µM
4 | COC[C@@H](NC(=O)c1nc(-c2cc(F)c(F)cc2F)n2c1C[N+](C)(C)CCC2)C(C)(C)C [Compound 827, (S)-N-(1-methoxy-3,3-dimethylbutan-2-yl)-8-methyl-3-(2,4,5-trifluorophenyl)-6,7,8,9-tetrahydro-5H-imidazo[1,5-a][1,4]diazepine-1-carboxamide methiodide] | > 10 µM
5 | CNC(=O)[C@@H](NC(=O)c1nc(-c2cc(F)c(F)cc2F)n2c1CN(Cc1cncnc1)CCC2)C(C)(C)C [Compound 714, (S)-N-(3,3-dimethyl-1-(methylamino)-1-oxobutan-2-yl)-8-(pyrimidin-5-ylmethyl)-3-(2,4,5-trifluorophenyl)-6,7,8,9-tetrahydro-5H-imidazo[1,5-a][1,4]diazepine-1-carboxamide] | 0.01 to 0.1 µM
